Test results as given in PubChem BioAssay AID624167 (Sanford-Burnham Center for Chemical Genomics, 2012).
Calls of active or inactive are those of the source.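 How the source made its calls: active means mean IC50 for reducing PEG3 promoter reporter signal at or below a set limit, with IC50 above the limit in both counter screens; inactive means the rest, including counter screen hits.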

By UniProt entry, the sequences of proteins in these tests, tags left out.
UniProt Q6IN02, whole entry, looked up: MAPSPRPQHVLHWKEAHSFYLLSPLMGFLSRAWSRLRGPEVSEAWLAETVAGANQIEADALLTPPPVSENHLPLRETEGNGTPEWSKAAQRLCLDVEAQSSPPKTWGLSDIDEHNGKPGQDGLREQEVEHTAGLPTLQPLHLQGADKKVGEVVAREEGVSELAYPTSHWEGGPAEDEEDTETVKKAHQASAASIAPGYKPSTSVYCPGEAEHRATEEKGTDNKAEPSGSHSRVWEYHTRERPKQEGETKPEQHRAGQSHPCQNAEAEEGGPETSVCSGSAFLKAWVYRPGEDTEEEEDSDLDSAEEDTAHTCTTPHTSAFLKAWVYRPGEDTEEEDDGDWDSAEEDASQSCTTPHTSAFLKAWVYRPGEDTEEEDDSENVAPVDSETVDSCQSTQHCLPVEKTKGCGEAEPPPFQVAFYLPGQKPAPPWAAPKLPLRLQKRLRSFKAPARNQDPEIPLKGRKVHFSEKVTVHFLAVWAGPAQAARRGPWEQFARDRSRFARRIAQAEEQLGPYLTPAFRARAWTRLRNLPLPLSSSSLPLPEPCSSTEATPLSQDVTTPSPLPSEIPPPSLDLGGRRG

How the values were obtained:
PEG-3 [1] = target: PEG-3 (UniProt Q6IN02); assay: Peg3 promoter luciferase inhibitors, potency, dose response, cell-based, HeLa, CREF/GAPDH counter-screen panel (AID 624167); settings: HeLa PEG-Prom luciferase reporter, overnight, CREF/GAPDH counter-screens, mean of runs
PEG-3 [2] = assay: as above; settings: HeLa PEG-Prom luciferase reporter, overnight, CREF/GAPDH counter-screens
[3] = run 1, dose range 1, individual replicate IC50 per panel
[4] = run 2, dose range 1, individual replicate IC50 per panel

| SMILES | IC50 (PEG-3 [1]) | IC50 (PEG-3 [2]; [3]) [µM] | IC50 (PEG-3 [2]; [4]) [µM] |
| --- | --- | --- | --- |
| O=c1[nH]c2ccccc2n1C1CCN(C(c2cccc3ccccc23)c2nnnn2C2CCCC2)CC1 (stereo unspecified) | inactive: > 100 µM | > 100 | > 100 |
| CCCCn1nnnc1C(c1cccs1)N1CCC(n2c(=O)[nH]c3ccccc32)CC1 (stereo unspecified) | inactive | 27.3 | 94.5 |
